For this assay, the system named is KPL-4 tumors. In words: KPL-4 xenograft combination study. In kind it is in vivo, mice. The conditions noted are these: vs untreated control; ARQ 092 60 mg/kg oral daily 12 days; trastuzumab 15 mg/kg iv every three days; paclitaxel 15 mg/kg iv every 6 days. As for the experimental part:
Paclitaxel was dosed, intravenously at a dose of 15 mg/kg every 6 days.
The tumor length and width (mm) were measured using a digital caliper. The estimated tumor volume (mm^3) was calculated according to the following formula: 0.5 x (tumor length) x (tumor width)^2, and reported as the mean ± SEM.

Regarding “trastuzumab: trastuzumab purchased from Chugai Pharmaceutical Co.”, the tumor growth inhibition was determined as 38%.

For the origin of these results see article PMC4607407 (PLoS ONE, 2015).
